In patent US10189836B2, “Therapeutic compounds, compositions and methods of use thereof” (Genentech, Inc., priority 2015, dated 2019):

What follows are compounds tested on JAK1-dependent STAT6 phosphorylation downstream of IL-13 stimulation in BEAS-2B cells.

Q: With `CN1CCN(C(=O)Cn2cc(Nc3nc4c(N5CC6CCC(C5)N6S(=O)(=O)c5ccccc5C#N)cccn4n3)cn2)CC1` [Example 147, 2-[[3-[2-[[1-[2-(4-methylpiperazin-1-yl)-2-oxo-ethyl]pyrazol-4-yl]amino]-[1,2,4]triazolo[1,5-a]pyridin-8-yl]-3,8-diazabicyclo[3.2.1]octan-8-yl]sulfonyl]benzonitrile] as the compound, how does the IC50 read?
A: Its IC50 is 51.3 nM.

Q: With `CN1CCN(C(=O)Cn2cc(Nc3nc4c(N5CC6CCC(C5)N6S(=O)(=O)Cc5cccc(F)c5)cccn4n3)cn2)CC1` [Example 159, 2-[4-[[8-[8-[(3-fluorophenyl)methylsulfonyl]-3,8-diazabicyclo[3.2.1]octan-3-yl]-[1,2,4]triazolo[1,5-a]pyridin-2-yl]amino]pyrazol-1-yl]-1-(4-methylpiperazin-1-yl)ethanone] as the compound, how does the IC50 read?
A: The IC50 was 56.1 nM.

Q: How did the IC50 turn out when `CN1CCN(C(=O)Cn2cc(Nc3nc4c(N5CC6CCC(C5)N6S(=O)(=O)c5cccc(F)c5)cccn4n3)cn2)CC1` [Example 156, 2-[4-[[8-[8-(3-fluorophenyl)sulfonyl-3,8-diazabicyclo[3.2.1]octan-3-yl]-[1,2,4]triazolo[1,5-a]pyridin-2-yl]amino]pyrazol-1-yl]-1-(4-methylpiperazin-1-yl)ethanone] was run?
A: Its IC50 is 61.7 nM.

Q: How did the IC50 turn out when `CN1CCN(C(=O)Cn2cc(Nc3nc4c(N5CC6CCC(C5)N6c5ccc(Cl)cc5)cccn4n3)cn2)CC1` [Example 113, 2-[4-[[8-[8-(4-chlorophenyl)-3,8-diazabicyclo[3.2.1]octan-3-yl]-[1,2,4]triazolo[1,5-a]pyridin-2-yl]amino]pyrazol-1-yl]-1-(4-methylpiperazin-1-yl)ethanone] was run?
A: Its IC50 is 15.8 nM.

Q: How did the IC50 turn out when `CSc1ccc(S(=O)(=O)N2C3CCC2CN(c2cccn4nc(Nc5cnn(CC(=O)N6CCN(C)CC6)c5)nc24)C3)cc1` [Example 107, 1-(4-methylpiperazin-1-yl)-2-[4-[[8-[8-(4-methylsulfanylphenyl)-sulfonyl-3,8-diazabicyclo[3.2.1]octan-3-yl]-[1,2,4]triazolo[1,5-a]pyridin-2-yl]amino]pyrazol-1-yl]ethanone] was run?
A: Its IC50 is 27.4 nM.

Q: `CN1CCN(C(=O)Cn2cc(Nc3nc4c(N5CC6CCC(C5)N6C(=O)N5CC(C(F)(F)F)C5)cccn4n3)cn2)CC1` [Example 2, 1-(4-methylpiperazin-1-yl)-2-[4-[[8-[8-[3-(trifluoromethyl)azetidine-1-carbonyl]-3,8-diazabicyclo[3.2.1]octan-3-yl]-[1,2,4]triazolo[1,5-a]pyridin-2-yl]amino]pyrazol-1-yl]ethanone] was tested. Which IC50 did it give?
A: The IC50 was 48.5 nM.

Q: With `CN1CCN(C(=O)Cn2cc(Nc3nc4c(N5CC6CCC(C5)N6C(=O)C5(C(F)(F)F)CC5)cccn4n3)cn2)CC1` [Example 38, 1-(4-methylpiperazin-1-yl)-2-[4-[[8-[8-[1-(trifluoromethyl)cyclopropanecarbonyl]-3,8-diazabicyclo[3.2.1]octan-3-yl]-[1,2,4]triazolo[1,5-a]pyridin-2-yl]amino]pyrazol-1-yl]ethanone] as the compound, how does the IC50 read?
A: The IC50 was 52.5 nM.

Q: Which IC50 does the source give for `CN1CCN(C(=O)Cn2cc(Nc3nc4c(N5CC6CCC(C5)N6C(=O)c5ccc(CC#N)cc5)cccn4n3)cn2)CC1` [Example 19, 2-[4-[3-[2-[[1-[2-(4-methylpiperazin-1-yl)-2-oxo-ethyl]pyrazol-4-yl]amino]-[1,2,4]triazolo[1,5-a]pyridin-8-yl]-3,8-diazabicyclo[3.2.1]octane-8-carbonyl]phenyl] acetonitrile] here?
A: The IC50 was 38.4 nM.

Q: With `O=C(Cn1cc(Nc2nc3c(N4CC5CCC(C4)N5C(=O)N4CC(C(F)(F)F)C4)cccn3n2)cn1)N1CCN(C2CCOCC2)CC1` [Example 39, 1-(4-tetrahydropyran-4-ylpiperazin-1-yl)-2-[4-[[8-[8-[3-(trifluoromethyl)azetidine-1-carbonyl]-3,8-diazabicyclo[3.2.1]octan-3-yl]-[1,2,4]triazolo[1,5-a]pyridin-2-yl]amino]pyrazol-1-yl]ethanone] as the compound, how does the IC50 read?
A: Its IC50 is 81.5 nM.
